In assay [1] the target is human glucagon receptor (GCGR) (Homo sapiens (Human), UniProt P47871). Briefly: Inhibition of 125I-glucagon binding to membranes from HEK293 cells expressing the human glucagon receptor. The conditions noted are these: membranes of hGluc-1 HEK cells, 125I-glucagon 0.3 nM, 2 hours room temperature; IC50 converted to Ki; average if tested more than once. The protocol: Inhibition ^125I-Glucagon Binding to Membranes from HEK293 Cells Expressing the Human Glucagon Receptor (GCGR)
Full-length human GCGR (Accession Number: NM000160) subcloned into pcDNA3.1 was stably transfected into HEK293 cells (hGluc-1 HEK) and maintained under G418 selection (500 μg/mL). Cell cultures were maintained in DMEM/F12 media supplemented with 10% FBS and 1% GlutaMax. Membranes were prepared from these cells as follows: cells were harvested from T225 flasks and re-suspended in hypotonic lysis buffer, 50 mM HEPES pH 7.4 supplemented with Complete Protease inhibitors (Boehringer Mannheim, Indianapolis, Ind.). Cells were dounced 20 times on ice and spun at 700×g to remove nuclei and unlysed cells. The resulting pellet was re-suspended in hypotonic lysis buffer and the above step was repeated. Supernatants from the low speed centrifugation were combined and subsequently spun at 100K×g for 1 hr at 4° C. and the resulting pellet was re-suspended in buffer containing 50 mM HEPES pH 7.4 and 10% sucrose and the protein concentration was adjusted at 1 mg/mL as determined in the BCA assay. Membranes were aliquoted and stored at −80° C. The binding assay was performed by a filtration method in a 384 well format. Membranes at a final protein concentration of 6 μg/well were incubated with ^125I-glucagon at 0.3 nM and in the presence of compound for 2 hours at room temperature in a total reaction volume of 40 μL per well. Assay buffer consisted of 50 mM HEPES, pH 7.4, 5 mM MgCl2, 1 mM CaCl2 and 0.2% BSA. 30 μL of the reaction was then transferred to PEI treated filter plates and followed by filter aspiration. Plates were then washed 5× and allowed to dry at room temperature overnight. The next day the bottom of the plate was covered with seal tape and scintillant was added. Total counts retained by the filters were quantified with a Top Count instrument. IC50's were generated by using a non-linear regression macro driven in Excel and converted to K's.

Sequences of proteins named here, by UniProt entry; tags and fusion partners are left off. Residues count along the entry.
UniProt P47871, 26-477: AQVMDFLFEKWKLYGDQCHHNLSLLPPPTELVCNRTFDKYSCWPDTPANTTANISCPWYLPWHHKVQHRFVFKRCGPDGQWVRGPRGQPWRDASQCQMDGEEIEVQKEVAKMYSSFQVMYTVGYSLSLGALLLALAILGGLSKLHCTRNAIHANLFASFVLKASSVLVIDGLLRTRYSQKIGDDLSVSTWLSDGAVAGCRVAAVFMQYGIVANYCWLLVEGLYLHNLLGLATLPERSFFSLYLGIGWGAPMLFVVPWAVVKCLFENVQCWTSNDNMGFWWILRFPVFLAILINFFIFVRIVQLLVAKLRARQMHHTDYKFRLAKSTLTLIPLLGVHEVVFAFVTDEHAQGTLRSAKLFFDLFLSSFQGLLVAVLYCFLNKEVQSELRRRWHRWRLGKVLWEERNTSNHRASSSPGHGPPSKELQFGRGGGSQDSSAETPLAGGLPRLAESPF

Assay [2] deals with human GCGR (Homo sapiens (Human), UniProt P47871). Description: Cellular functional assay, cAMP readout (glucagon-stimulated cAMP in HEK293 cells expressing human GCGR). The settings on record: hGluc-1 HEK cells, LANCE TR-FRET, IC50 converted to Ki, average if tested more than once. It counts as cell-based. The protocol: IC50 Values in Cellular Functional Assays: cAMP Readout
Full-length human GCGR (Accession Number: NM000160) subcloned into pcDNA3.1 was stably transfected into HEK293 cells (hGluc-1 HEK) and maintained under G418 selection (500 μg/mL). Cell cultures were maintained in DMEM/F12 media supplemented with 10% FBS and 1% GlutaMax. Glucagon stimulated cAMP was quantified using LANCE technology as per manufacturer instructions. On the day of the experiment, spent media was removed and cells were washed with Hank's Buffered Saline solution (HBSS) and cells were harvested with non-enzymatic cell dissociation solution, then washed once with HBSS. Cells were re-suspended in stimulation buffer at a concentration of 0.83×10^6 cells/ml and cAMP detection antibody was added. 6 μl/well of this solution was then dispensed in a 384 well plate (cell density 5000 cells/well). Test compound was serially diluted in DMSO and 50 nl were dispensed on top of the cell solution and allowed to incubate for 30 minutes. 6 μl of a 2× glucagon solution (final concentration in assay […]) was then added and the reaction was terminated after 5 minutes with the addition of detection mix. The mixture was incubated, protected from light for 1.5 h. cAMP levels were quantified by TR-FRET in an EnVision instrument against a known standard. IC50's were generated by using a non-linear regression macro driven in Excel and converted to K, values.
For orientation: Time-resolved FRET reads energy transfer from a long-lived donor to a nearby acceptor.

This is an account of results in patent US8748624B2, “Picolinamido-propanoic acid derivatives useful as glucagon receptor antagonists” (Janssen Pharmaceutica NV, priority 2011, dated 2014).

On to `O=C(O)CCNC(=O)c1ccc(-c2cc(Cl)ccc2CNc2ccc(-c3cccc(Cl)c3)cc2)cn1` [Compound 14, 3-(5-(5-chloro-2-(((3′-chloro-[1,1′-biphenyl]-4-yl)amino)methyl)phenyl)picolinamido)propanoic acid], for which the inhibition constant (Ki) – broadly, the dissociation constant of the complex between target and ligand, obtained from inhibition or displacement – in assay [1] is 0.0651 µM; in assay [2] it was 0.0948 µM.

As to `Cc1cc(Cl)ccc1-c1ccc(NC(=O)c2ccc(C(F)(F)F)cc2-c2ccc(C(=O)NCCC(=O)O)nc2)cc1` [Compound 154, 3-(5-(2-((4′-chloro-2′-methyl-[1,1′-biphenyl]-4-yl)carbamoyl)-5-(trifluoromethyl)phenyl)picolinamido)propanoic acid], the values for the Ki in assay [1] and in assay [2] were 0.0301 µM and 0.02 µM, respectively.

Take `O=C(O)CCNC(=O)c1ccc(-c2cc(C(F)(F)F)ccc2CNc2ccc(-c3ccc(Cl)cc3Cl)cc2)cn1` [Compound 21, 3-(5-(2-(((2′,4′-dichloro-[1,1′-biphenyl]-4-yl)amino)methyl)-5-(trifluoromethyl)phenyl)picolinamido)propanoic acid]: the Ki in assay [1] was determined as 0.0194 µM; in assay [2], 0.0566 µM.

In the case of `O=C(O)CCNC(=O)c1ccc(-c2cc(C(F)(F)F)cc(Cl)c2CNc2ccc(-c3ccc(Cl)cc3Cl)cc2)cn1` [Compound 72, 3-(5-(3-chloro-2-(((2′,4′-dichloro-[1,1′-biphenyl]-4-yl)amino)methyl)-5-(trifluoromethyl)phenyl)picolinamido)propanoic acid], the Ki turned out to be 0.0203 µM in assay [1] and 0.0135 µM in assay [2].

Regarding `O=C(O)CCNC(=O)c1ccc(-c2c(CNc3ccc(-c4ccc(Cl)cc4)cc3)cccc2C(F)(F)F)cn1` [Compound 64, 3-(5-(2-(((4′-chloro-[1,1′-biphenyl]-4-yl)amino)methyl)-6-(trifluoromethyl)phenyl)picolinamido)propanoic acid], the Ki in assay [1] came to 0.0957 µM; in assay [2], 1.85 µM.

Take `O=C(O)CCNC(=O)c1ccc(-c2cc(Cl)ccc2CNc2ccc(-c3ccc(F)cc3)c(Cl)c2)cn1` [Compound 52, 3-(5-(5-chloro-2-(((2-chloro-4′-fluoro-[1,1′-biphenyl]-4-yl)amino)methyl)phenyl)picolinamido)propanoic acid]: the values for the Ki in assay [1] and in assay [2] were 0.0199 µM and 0.11 µM, respectively.

Turning to `N#Cc1cc(NCc2cc(F)c(F)cc2-c2ccc(C(=O)NCCC(=O)O)nc2)ccc1-c1cc(F)cc(C(F)(F)F)c1` [Compound 116, 3-(5-(2-(((2-cyano-3′-fluoro-5′-(trifluoromethyl)-[1,1′-biphenyl]-4-yl)amino)methyl)-4,5-difluorophenyl)picolinamido)propanoic acid], the Ki came out at 0.183 µM in assay [1] and 1.7 µM in assay [2].
